Values quoted from earlier work in patent US20050009124A1, “Assays for detection of phosphoinositide kinase and phosphatase activity” (Echelon Biosciences Incorporated, priority 2001, published 2005).

Amino acid sequences for entries named in this document (tags omitted).
UniProt P48736, whole entry, species assumed: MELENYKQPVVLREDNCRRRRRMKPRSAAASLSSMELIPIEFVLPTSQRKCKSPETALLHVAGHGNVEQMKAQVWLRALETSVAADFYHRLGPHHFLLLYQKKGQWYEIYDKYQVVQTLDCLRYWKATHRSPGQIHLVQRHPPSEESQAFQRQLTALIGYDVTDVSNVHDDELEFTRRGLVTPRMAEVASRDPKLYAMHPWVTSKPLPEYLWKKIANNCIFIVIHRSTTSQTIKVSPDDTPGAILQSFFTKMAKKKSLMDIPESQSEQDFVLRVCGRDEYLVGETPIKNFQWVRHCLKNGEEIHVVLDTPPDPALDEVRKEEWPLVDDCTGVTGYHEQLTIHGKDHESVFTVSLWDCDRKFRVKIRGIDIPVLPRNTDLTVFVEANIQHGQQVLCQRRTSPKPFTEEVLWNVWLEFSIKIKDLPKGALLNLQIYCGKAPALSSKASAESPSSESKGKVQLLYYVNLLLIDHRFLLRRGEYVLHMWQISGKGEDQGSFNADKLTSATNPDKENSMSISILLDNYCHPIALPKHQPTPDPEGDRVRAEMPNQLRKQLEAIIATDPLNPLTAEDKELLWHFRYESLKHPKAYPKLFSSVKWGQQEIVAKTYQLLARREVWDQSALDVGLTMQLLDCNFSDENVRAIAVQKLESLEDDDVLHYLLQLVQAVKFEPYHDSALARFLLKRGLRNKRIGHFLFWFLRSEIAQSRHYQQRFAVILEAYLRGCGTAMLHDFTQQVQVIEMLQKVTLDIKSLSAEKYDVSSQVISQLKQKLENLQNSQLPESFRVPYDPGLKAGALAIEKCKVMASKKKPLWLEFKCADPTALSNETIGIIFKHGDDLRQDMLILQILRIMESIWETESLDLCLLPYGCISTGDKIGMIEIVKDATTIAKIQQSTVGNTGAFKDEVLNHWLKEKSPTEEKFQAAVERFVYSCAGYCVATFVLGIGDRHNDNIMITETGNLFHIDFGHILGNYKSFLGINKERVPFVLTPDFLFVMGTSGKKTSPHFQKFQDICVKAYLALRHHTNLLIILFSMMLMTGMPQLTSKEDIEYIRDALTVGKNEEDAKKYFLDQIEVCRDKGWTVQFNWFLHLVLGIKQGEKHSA

Target: PI 3-Kγ (Homo sapiens, UniProt P48736)
Conditions: read-out: Reported IC50 Values, cited from earlier work

## O=c1cc(N2CCOCC2)oc2c(-c3ccccc3)cccc12 [LY294002]
PI 3-Kγ
  pIC50: 5.25
Recombinant PI 3-Kγ
  pIC50: 5.55

pIC50: −log10 of the molar value. Where two headings read alike, the source gives them in different places.
